We go through one compound from US20050175505A1, “Personal monitor to detect exposure to toxic agents” (published 2005).

Each structure is given as a SMILES string.

The subject of the assay is cholinesterase enzyme (ChE). Kind of assay: Inhibition of fresh, soluble (non-immobilized) ChE by OP, kinetic read at 405 nm. To be noted: enzyme and OP diluted 1:100, 2 μl enzyme, 2 μl OP, 100 μl substrate.

For `CCOP(=S)(OCC)Oc1cc(C)nc(C(C)C)n1`, the “inhibition of ChE activity” value is “Significant inhibition”.
